Binding of CDR-mutated scFvs to a peptide of the spike HR2 region

From the AlphaSeq antibody data of Engelhart et al. 2022 (doi:10.1038/s41597-022-01779-4), copy in the FLAb collection.

Target peptide (SARS-CoV-2 spike, HR2 region): PDVDLGDISGINAS

Each scFv is VH, the linker GGGGSGGGGSGGGGS, VL, as in the parent Ab-95, and differs from it in the CDRs of the light chain only.
VH: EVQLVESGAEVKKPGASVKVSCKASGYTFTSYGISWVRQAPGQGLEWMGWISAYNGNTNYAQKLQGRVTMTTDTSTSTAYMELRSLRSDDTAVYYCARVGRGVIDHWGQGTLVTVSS
VL: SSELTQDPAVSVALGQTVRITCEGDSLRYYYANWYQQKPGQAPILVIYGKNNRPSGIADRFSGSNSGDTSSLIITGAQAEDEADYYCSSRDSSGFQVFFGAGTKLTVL

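The starting antibody came from a phage panning campaign against this peptide. The library (AAYL52) carries one to three amino acid substitutions per variant, with no insertions or deletions. AlphaSeq pools MATa yeast showing the antibodies with MATalpha yeast showing the peptide. Mating (16 h, 30 °C) was followed by selection of diploids and sequencing of their barcodes. Read counts were normalised to the haploid input and turned into Kd by a linear fit to BCL2-family pairs of known affinity, for each replicate. Each pool was mated in three replicate cultures.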

Sequences are complete VL domains.
Values are log10 of the apparent Kd in nM; lower means stronger binding.
An entry "n.d." has no value in the source: the pair was not observed among the diploids in that replicate. This suggests poor binding but is not conclusive.
Three control strains display no target. For library AAYL52, 28% of the pairings with them gave a signal, with a median of 3.91 and one signal in twenty below 2.90, so weak values seen in few replicates may be background. Also given: how often the same scFv was detected with the empty control strains, with their mean in brackets.

VL | log10 Kd (nM) by replicate | empty controls
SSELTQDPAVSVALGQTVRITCEGDSLRYYYANWYQQKPGQAPILVIYGENNRPSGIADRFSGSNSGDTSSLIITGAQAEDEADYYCSSRDSWGFVVFFGAGTKLTVL | 3.65 n.d. 2.91 | 2 of 9 (3.22)
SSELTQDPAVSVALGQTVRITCEGDSLRYYYANWYQQKPGQAPILVIYGKICRPSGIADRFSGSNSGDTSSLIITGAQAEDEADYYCSSRDSSGFIVFFGAGTKLTVL | 4.87 4.16 n.d. | 1 of 9 (3.70)
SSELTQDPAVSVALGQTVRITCEGDSLRGMYANWYQQKPGQAPILVIYGKNNRPSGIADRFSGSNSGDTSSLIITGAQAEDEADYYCSSADSSGFQVFFGAGTKLTVL | 3.89 3.22 n.d. | 1 of 9 (3.44)
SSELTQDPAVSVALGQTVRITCEGHSLRYYYANWYQQKPGQAPILVIYGKNFRPSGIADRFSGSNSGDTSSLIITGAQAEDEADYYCSSRDSSGFQVFFGAGTKLTVL | 3.30 3.54 2.96 | 1 of 9 (4.06)
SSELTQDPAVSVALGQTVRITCTVDSMRYYYANWYQQKPGQAPILVIYGKNNRPSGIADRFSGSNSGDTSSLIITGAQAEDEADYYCSSRDSSGFQVFFGAGTKLTVL | n.d. 4.00 3.41 | 1 of 9 (3.35)
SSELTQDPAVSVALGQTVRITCEGKSLRYYYANWYQQKPGQAPILVIYGKNNRPSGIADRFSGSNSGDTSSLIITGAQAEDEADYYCSSRDSSGFQEFFGAGTKLTVL | 1.68 1.55 1.94 | 1 of 9 (3.75)
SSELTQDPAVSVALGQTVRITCEGDSLRYYYGNWYQQKPGQAPILVIYGKNNRCSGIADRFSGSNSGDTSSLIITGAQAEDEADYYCSSRESSGFQVFFGAGTKLTVL | 3.08 n.d. n.d. | 2 of 9 (4.57)
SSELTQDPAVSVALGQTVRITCEKDSLRYSYANWYQQKPGQAPILVIYCKNNRPSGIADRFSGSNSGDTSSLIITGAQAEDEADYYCSSRDSSGFQVFFGAGTKLTVL | 3.99 4.79 n.d. | 4 of 9 (4.70)
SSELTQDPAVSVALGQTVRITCEGDSLHYYYANWYQQKPGQAPILVIYGKNNRASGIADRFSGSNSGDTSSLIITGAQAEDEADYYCSSRDSDGFQVFFGAGTKLTVL | 2.34 3.07 2.44 | 6 of 9 (4.03)
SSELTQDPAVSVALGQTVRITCEGCSLEYYYANWYQQKPGQAPILVIYGKNNRPSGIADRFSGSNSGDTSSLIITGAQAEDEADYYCSSRDSSGFQVFFGAGTKLTVL | 1.83 1.58 1.83 | 5 of 9 (3.86)
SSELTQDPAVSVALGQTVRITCEGDSLRYYYANWYQQKPGQAPILVIYKKNNRPSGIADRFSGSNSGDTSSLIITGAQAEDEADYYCSMRDSLGFQVFFGAGTKLTVL | n.d. n.d. n.d. | 4 of 9 (3.72)
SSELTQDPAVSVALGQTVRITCEGDELRYYYANWYQQKPGQAPILVIYGKNNRPSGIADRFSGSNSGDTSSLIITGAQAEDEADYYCSSRDSGGMQVFFGAGTKLTVL | 3.72 3.51 n.d. | 5 of 9 (3.54)
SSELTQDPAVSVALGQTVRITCEGDSLRYYYWNWYQQKPGQAPILVIYGKNNRPSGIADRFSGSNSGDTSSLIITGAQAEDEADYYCSSRDSSGMQVVFGAGTKLTVL | n.d. 4.12 n.d. | 0 of 9
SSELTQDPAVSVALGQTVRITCEGDSLRYYYANWYQQKPGQAPILVIYGKNNRPQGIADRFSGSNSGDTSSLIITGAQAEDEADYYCSSRDSSGCQVEFGAGTKLTVL | n.d. n.d. n.d. | 2 of 9 (3.72)
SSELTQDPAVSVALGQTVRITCEGDSLRYYKANWYQQKPGQAPILVIYGKNNDPSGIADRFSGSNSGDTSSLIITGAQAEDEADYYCSSRDSSGFNVFFGAGTKLTVL | 3.23 2.01 2.30 | 2 of 9 (4.16)
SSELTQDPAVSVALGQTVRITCEGDSLRYYYANWYQQKPGQAPILVIYGKNNRPFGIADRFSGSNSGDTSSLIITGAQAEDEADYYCHSRDSSGTQVFFGAGTKLTVL | 2.97 3.14 1.94 | 1 of 9 (3.37)
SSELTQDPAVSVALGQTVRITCAGDSLRYYHPNWYQQKPGQAPILVIYGKNNRPSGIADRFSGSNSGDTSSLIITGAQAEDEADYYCSSRDSSGFQVFFGAGTKLTVL | 2.04 2.26 1.76 | 0 of 9
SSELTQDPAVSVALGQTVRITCEGDSLRYYYANWYQQKPGQAPILVIYGKNNKPSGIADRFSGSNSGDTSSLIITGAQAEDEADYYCSSRDSSGFIVFFGAGTKLTVL | n.d. 4.27 n.d. | 1 of 9 (4.49)
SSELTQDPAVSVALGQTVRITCEGDSLRYQYANWYQQKPGQAPILVIYGKNNRPSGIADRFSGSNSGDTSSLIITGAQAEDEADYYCSSRDSSGFMTFFGAGTKLTVL | 1.69 1.33 0.80 | 5 of 9 (4.13)
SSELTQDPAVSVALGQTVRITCFGDSLRYDYANWYQQKPGQAPILVIYGKNNRPEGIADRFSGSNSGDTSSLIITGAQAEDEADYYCSSRDSSGFQVFFGAGTKLTVL | 1.70 1.60 1.04 | 4 of 9 (3.78)
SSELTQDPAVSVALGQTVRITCEGDSKRYYYANWYQQKPGQAPILVIYGKNNRPSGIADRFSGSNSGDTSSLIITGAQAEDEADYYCSSRDSFGFQVIFGAGTKLTVL | n.d. n.d. n.d. | 0 of 9
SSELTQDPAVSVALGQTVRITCEGDSLRYYYFSWYQQKPGQAPILVIYGKNNRPSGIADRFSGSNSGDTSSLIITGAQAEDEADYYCSSRDSSGFQVFFGAGTKLTVL | n.d. n.d. n.d. | 3 of 9 (4.28)
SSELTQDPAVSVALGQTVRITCTGDSLRAYYANWYQQKPGQAPILVIYGKNNRPSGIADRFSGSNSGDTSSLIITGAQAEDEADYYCSSRDQSGFQVFFGAGTKLTVL | 1.70 1.59 0.83 | 1 of 9 (5.29)

The 2 strongest on average among those seen in every replicate, once more:

| VL | log10 Kd (nM) by replicate | empty controls |
|---|---|---|
| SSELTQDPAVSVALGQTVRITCEGDSLRYQYANWYQQKPGQAPILVIYGKNNRPSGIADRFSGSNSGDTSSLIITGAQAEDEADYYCSSRDSSGFMTFFGAGTKLTVL | 1.69 1.33 0.80 | 5 of 9 (4.13) |
| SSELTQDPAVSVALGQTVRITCTGDSLRAYYANWYQQKPGQAPILVIYGKNNRPSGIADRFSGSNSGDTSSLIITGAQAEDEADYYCSSRDQSGFQVFFGAGTKLTVL | 1.70 1.59 0.83 | 1 of 9 (5.29) |

Parent in this assay: reference entry 2.31, copy in this library 2.25.